Laboratory results published in patent EP4703362A1 (Chengdu Sibeibo Pharmaceutical Technology Co., Ltd, priority 2023, dated 2024).

Molecular target: T1, CGRP receptor (Homo sapiens, UniProt O60894+Q16602)
T1 construct: A tissue homogenate of SK-N-MC cell membrane was used as a receptor source; host or cells: SK-N-MC (membrane preparation)
Assay: Competitive binding determination of in-vitro [125I] CGRP
Settings: Ki (compound)/Ki (Zavegepant)
Procedure: The ability of the compound to compete for a radiolabelled endogenous peptide human αCGRP ([^125I] CGRP) was determined.
The SK-N-MC cells endogenously expressed a CGRP receptor with the same sequence as the human CGRP receptor. A tissue homogenate of SK-N-MC cell membrane was used as a receptor source, and the radiolabelled endogenous peptide human αCGRP ([^125I] CGRP) and the compound competitively bound with the receptor source. After washing the unbound part of [^125I] CGRP, the binding of the reaction compound on the receptor could be detected by a radioactive signal.
3.1 Experimental cell line: SK-N-MC (human neuroepithelioma cells) from Cell Resource Center, Peking Union Medical College 3.2 Detection equipment: MicroBeta2 (PerkinElmer), and […]-96 well cell collector (PerkinElmer, C961961) 3.3 Experimental reagents and consumables
3.4 Experimental steps • 3.4.1 Extraction and quantification of membrane protein: fresh SK-N-MC cells were collected. The cell pellet was resuspended with an experimental buffer (Tris-HCl 50 mM, pH 7.4). The cells were homogenized 10 times by a homogenizer, and centrifuged at 1000 g and 4°C for 10 minutes, then nuclear/mitochondrial fragments were removed, and a supernatant tissue homogenate was collected. […] A ^3H signal was captured by a MicroBeta2 Reader counting filter. • 3.4.3 Data analysis
Data were analyzed by Prism 5.

With `Cc1cc(C[C@@H](NC(=O)N2CCC(c3cc4c([nH]c3=O)SCC4)CC2)C(=O)N2CCN(C3CCN(C)CC3)CC2)cc2cn[nH]c12` [Example 8, (R)-N-(3-(7-methyl-1H-indazole-5-yl)-1-(4-(1-methylpiperidine-4-yl)piperazine-1-yl)-1-oxopropan-2-yl)-4-(6-oxo-2,3,6,7-tetrahydrothieno[2,3-b]pyridine-5-yl)piperidine-1-formamide] the Ki ratio was 0.23.
